{"source": "ChEMBL document CHEMBL1128159", "about": "“Synthesis and evaluation of diacylhydrazines as inhibitors of the interleukin-1 converting enzyme (ICE)” (Bioorg Med Chem Lett, 1995)", "biological_target": "T1, Caspase-1 (Homo sapiens) (UniProt P29466)", "T1 sequence (whole entry)": "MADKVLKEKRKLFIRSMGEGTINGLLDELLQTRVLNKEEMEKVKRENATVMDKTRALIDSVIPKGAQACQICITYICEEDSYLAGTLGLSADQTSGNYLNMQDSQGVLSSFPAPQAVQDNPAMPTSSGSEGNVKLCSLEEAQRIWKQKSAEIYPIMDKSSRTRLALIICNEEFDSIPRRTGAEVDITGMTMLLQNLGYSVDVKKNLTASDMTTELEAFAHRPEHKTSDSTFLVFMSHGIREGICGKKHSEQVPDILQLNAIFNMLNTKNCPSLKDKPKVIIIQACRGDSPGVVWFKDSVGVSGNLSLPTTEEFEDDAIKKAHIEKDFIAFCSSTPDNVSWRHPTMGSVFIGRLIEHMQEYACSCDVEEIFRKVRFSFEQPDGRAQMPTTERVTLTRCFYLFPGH", "experiment": "Compound was tested for inhibition of IL-1 beta converting enzyme by measuring second order rate of inactivation", "data": [{"smiles": "CC(C)[C@H](NC(=O)OCc1ccccc1)C(=O)N[C@@H](C)C(=O)NC(CC(=O)O)C(=O)COc1cc(C(F)(F)F)nn1-c1ccccc1", "note": "(stereo partly specified)", "values": [{"measurement": "second-order inactivation rate constant (kobs/[I])", "value": 280000, "unit": "M⁻¹ s⁻¹"}]}]}
